ChEMBL document CHEMBL5380877, “Azulene as a biphenyl mimetic in orexin/hypocretin receptor agonists” (Bioorg Med Chem, 2023)
The source made the active and inactive calls. The calls are words filed in the database; no cut-off is given here.

Protein sequences, listed by entry. Tags and fused reporters are not part of them.
UniProt O43613, whole entry: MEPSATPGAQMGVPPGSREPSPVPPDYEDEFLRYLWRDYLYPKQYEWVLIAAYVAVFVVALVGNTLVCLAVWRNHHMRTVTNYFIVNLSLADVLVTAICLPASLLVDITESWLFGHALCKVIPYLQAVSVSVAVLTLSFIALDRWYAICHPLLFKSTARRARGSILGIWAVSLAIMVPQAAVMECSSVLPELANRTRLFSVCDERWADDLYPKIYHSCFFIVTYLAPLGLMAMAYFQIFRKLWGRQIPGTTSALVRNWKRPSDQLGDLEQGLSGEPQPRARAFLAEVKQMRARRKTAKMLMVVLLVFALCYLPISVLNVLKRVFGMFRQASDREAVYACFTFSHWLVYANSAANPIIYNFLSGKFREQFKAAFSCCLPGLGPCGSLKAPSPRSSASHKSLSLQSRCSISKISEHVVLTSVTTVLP

Tests used:
[1] = biological target: T1, Orexin/Hypocretin receptor type 1 (Homo sapiens, UniProt O43613); assay: Agonist activity at human OX1 receptor expressed in CHO cells assessed as increase in orexin-A induced Ca2+ accumulation level at 10 uM incubated for 24 hrs by FLIPR calcium 4 assay; format: functional, cell-based; conditions: filed as agonist
[2] = biological target: T1, Orexin/Hypocretin receptor type 1; assay: Agonist activity at human OX1 receptor expressed in CHO-K1 cells assessed as increase in intracellular Ca2+ level at 10 uM incubated for 24 hrs by FLIPR calcium 4 assay relative to orexin-A; format: functional, cell-based

Row | SMILES | Activity [1] | Emax ([2]; filed as agonist) [%] | Emax [2] [%]
1 | Cc1ccc2c(C(=O)N(C)C)cc(S(=O)(=O)Nc3cccc(NCCNC(=O)c4cccc(C)c4)c3)c-2cc1 | Active | 80 | 
2 | Cc1cccc(C(=O)NCCNc2cccc(NS(=O)(=O)c3cc(C(=O)N(C)C)c4ccc(C(=O)N(C)C)ccc3-4)c2)c1 |  |  | 11
